Active and inactive are the calls of the source.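 The calls were made as follows: active = IC50 of 20 µM or lower; inactive = the rest.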
Test system: HL-1 cardiomyocytes, H2O2 injury, ATP luminescence, 2 h
Experiment: H2O2-induced HL-1 cell death suppression – ATP luminescence, dose response (AID 602215);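 also: potency is for protection so actives raise ATP signal against peroxide damage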

SMILES: NC(=O)c1ccsc1NC(=O)c1ccc([N+](=O)[O-])o1
- IC50: inactive: > 79 µM

Source: PubChem BioAssay AID602215 (Sanford-Burnham Center for Chemical Genomics, 2012)
